From patent US10709712B2 (dated 2020)

Amino acid sequences for entries named in this document (tags omitted).
UniProt P15056, whole entry V600E: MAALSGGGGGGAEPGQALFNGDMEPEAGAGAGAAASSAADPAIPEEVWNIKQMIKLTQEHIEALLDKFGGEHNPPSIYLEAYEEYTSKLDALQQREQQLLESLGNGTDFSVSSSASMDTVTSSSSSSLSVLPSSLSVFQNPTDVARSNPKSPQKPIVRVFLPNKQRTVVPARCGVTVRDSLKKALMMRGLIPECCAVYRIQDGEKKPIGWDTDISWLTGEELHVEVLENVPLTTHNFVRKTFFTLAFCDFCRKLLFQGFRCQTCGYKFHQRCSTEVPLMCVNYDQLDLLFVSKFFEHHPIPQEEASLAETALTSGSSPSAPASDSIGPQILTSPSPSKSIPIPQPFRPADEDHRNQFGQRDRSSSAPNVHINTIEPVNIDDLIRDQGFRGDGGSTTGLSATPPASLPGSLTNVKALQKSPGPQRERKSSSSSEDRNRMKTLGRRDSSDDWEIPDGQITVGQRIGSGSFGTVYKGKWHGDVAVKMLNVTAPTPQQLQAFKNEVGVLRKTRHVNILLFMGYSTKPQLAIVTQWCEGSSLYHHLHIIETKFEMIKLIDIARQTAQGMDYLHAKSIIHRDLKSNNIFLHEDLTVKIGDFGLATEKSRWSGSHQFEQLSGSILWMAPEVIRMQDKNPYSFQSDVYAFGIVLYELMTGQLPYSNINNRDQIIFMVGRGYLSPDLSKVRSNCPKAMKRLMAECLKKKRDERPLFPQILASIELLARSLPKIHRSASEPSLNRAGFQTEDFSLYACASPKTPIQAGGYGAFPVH

Biological target: b-Raf(V600E) (Homo sapiens (Human), UniProt P15056, V600E)
Conditions: read-out: b-Raf IC-50; Table 2; Alpha Screen phospho-MEK, reaction 3 hours

## N-(4-methyl-3-(7-morpholino-2-oxo-2,3-dihydrobenzo[d]oxazol-5-yl) phenyl)-3-(trifluoromethyl) benzamide [Example 827]
  IC50: 1.4 nM
